Laboratory results taken from patent publication US7361680B2, “Indole compounds useful for the treatment of cancer” (The Regents of the University of California, priority 1999, dated 2008).
Values joined by “and” are separate entries in the source; they are usually repeats but may differ in a detail not shown here. Equal values may be shown once.

Tests used:
primary CLL cells = test: Activity screening, MTT viability, primary CLL cells; format: cell-based; settings: three days, quantity not given, repeat runs (1st), (2nd)
Protocol: They were plated in 96-well plates at 100,000 cells/well. Titrated concentrations of the compound to be tested were added to the culture medium. The cells were incubated three days at 37° C., 5% CO2. Viability of the cells was assayed by standard MTT assay. Each drug concentration was done in duplicate.

[1] = tested on: CD36, a marker of PPAR-γ activation; test: Surface expression of CD36 in THP-1 monocytic cells, flow cytometry; format: cell-based, human; settings: THP-1, three days of culture, with or without 40 ng TPA; FIG. 14

CCc1cccc2c3c([nH]c12)C(CC)(CC)OCC3 [Compound 5, 1,1,8-Triethyl-1,3,4,9-tetrahydropyrano[3,4-b]indole]
EC50 (primary CLL cells; CLL cell, 72 h): > 1000 µM

CCc1cccc2c3c([nH]c12)[C@](CC)(CC(=O)O)OCC3 [S-etodolac]
expression of CD36 [1]: caused the expression of CD36

CCc1cccc2c3c([nH]c12)[C@@](CC)(CC(=O)O)OCC3 [R-etodolac]
expression of CD36 [1]: caused the expression of CD36

CCc1cccc2c3c([nH]c12)C(CC)(CC(N)=O)OCC3 (centres unmarked) [Compound 6, 2-(1,8-Diethyl-1,3,4,9-tetrahydropyrano[3,4-b]indol-1-yl)-acetamide]
EC50 (primary CLL cells; CLL cell, 72 h): 105 µM | EC50 (primary CLL cells): 200 µM and 190 µM and 160 µM
